This experiment concerns the target full-length human PIKFYVE (GST-PIKFYVE) (Homo sapiens (Human), UniProt Q9Y2I7, L932S/Q1183K/Q995L/S1033A/S696N/T998S). Description: PIKfyve biochemical assay (ADP-Glo Kinase assay, Carna Biosciences). As to conditions: read-out: hPIKfyve IC50.

By UniProt entry, the sequences of proteins in these tests, tags left out.
UniProt Q9Y2I7, whole entry S696N/L932S/Q995L/T998S/S1033A/Q1183K: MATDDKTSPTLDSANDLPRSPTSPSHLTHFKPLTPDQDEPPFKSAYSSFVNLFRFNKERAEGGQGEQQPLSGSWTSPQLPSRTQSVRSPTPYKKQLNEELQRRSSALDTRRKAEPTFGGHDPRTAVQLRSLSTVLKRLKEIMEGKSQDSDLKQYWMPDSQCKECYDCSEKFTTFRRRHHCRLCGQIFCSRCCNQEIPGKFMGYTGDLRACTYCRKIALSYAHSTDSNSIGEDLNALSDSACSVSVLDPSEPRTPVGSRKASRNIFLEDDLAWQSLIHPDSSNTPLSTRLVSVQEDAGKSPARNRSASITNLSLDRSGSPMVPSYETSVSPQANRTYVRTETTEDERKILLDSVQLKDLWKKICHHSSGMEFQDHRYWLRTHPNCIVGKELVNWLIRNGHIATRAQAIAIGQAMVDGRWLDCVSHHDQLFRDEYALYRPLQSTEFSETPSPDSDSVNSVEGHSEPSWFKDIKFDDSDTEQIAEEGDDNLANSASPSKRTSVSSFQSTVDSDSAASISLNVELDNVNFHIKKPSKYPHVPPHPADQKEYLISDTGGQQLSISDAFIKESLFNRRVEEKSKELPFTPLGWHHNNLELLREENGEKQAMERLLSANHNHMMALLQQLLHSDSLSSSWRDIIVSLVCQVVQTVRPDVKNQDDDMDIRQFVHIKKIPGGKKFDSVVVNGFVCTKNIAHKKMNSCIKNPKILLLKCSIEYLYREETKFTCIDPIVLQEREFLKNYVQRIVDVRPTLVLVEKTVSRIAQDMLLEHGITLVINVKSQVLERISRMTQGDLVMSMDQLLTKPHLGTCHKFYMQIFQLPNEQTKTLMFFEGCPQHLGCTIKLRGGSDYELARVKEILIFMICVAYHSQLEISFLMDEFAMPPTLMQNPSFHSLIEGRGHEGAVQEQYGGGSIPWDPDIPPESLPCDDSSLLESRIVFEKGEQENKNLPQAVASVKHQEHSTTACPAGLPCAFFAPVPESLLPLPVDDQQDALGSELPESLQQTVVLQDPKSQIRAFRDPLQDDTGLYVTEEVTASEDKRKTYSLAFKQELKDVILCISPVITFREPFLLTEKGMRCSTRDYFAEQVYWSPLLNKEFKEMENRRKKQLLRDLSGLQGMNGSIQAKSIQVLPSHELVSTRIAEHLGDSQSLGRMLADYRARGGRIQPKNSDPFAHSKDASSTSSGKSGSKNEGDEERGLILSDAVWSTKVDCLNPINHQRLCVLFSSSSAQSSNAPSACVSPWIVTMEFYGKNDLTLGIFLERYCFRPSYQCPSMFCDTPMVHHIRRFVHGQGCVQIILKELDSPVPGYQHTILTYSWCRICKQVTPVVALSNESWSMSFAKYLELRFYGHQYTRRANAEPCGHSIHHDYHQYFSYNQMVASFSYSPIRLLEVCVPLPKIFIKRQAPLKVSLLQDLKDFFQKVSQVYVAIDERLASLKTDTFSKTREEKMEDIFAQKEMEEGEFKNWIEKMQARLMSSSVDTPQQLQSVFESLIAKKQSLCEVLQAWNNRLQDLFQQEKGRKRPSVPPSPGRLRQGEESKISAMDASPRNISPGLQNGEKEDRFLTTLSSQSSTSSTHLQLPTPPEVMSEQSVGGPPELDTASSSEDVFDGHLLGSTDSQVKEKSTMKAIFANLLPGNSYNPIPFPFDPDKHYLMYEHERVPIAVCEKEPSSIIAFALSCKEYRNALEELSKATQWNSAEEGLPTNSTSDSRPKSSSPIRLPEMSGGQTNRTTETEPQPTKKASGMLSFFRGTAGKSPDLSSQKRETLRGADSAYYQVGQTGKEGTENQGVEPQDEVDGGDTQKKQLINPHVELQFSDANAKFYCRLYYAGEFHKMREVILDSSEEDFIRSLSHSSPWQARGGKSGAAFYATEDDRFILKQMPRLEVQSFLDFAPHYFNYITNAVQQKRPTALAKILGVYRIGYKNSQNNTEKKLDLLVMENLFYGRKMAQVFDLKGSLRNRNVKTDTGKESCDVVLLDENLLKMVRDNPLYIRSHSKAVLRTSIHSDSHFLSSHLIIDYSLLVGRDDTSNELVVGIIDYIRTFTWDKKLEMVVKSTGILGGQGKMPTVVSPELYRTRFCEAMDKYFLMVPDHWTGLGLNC

The values below come from patent US20240208964A1, “PYRIDOPYRIMIDINES AND METHODS OF THEIR USE” (PYRIDOPYRIMIDINES AND METHODS OF THEIR USE, priority 2020, published 2024).

For the compound `Brc1cnc2c(N3CCOCC3)nc(-n3ccc(-c4ccccc4)n3)nc2c1`, the IC50 fell in the range of 100 to 1000 nM.
